The series in a line: Excipient compatibility: percent purity (HPLC) of SP-304 in binary mixtures stored at 40 C/75RH. The format is physicochemical. The note with it: closed glass vial, 3 months. From the text:
For solid excipients the binary mixtures were comprised of 9.1% or 50% excipient. Glass vials were stored at 40 C/75RH open or closed.

`CC(C)C[C@H](NC(=O)[C@@H]1CSSC[C@@H]2NC(=O)[C@H](CC(C)C)NC(=O)[C@H](CCC(=O)O)NC(=O)[C@@H](NC(=O)[C@H](CCC(=O)O)NC(=O)[C@H](CC(=O)O)NC(=O)[C@@H](N)CC(N)=O)CSSC[C@H](NC(=O)[C@H](C)NC(=O)[C@H](C(C)C)NC(=O)[C@H](CC(N)=O)NC(=O)[C@H](C(C)C)NC2=O)C(=O)N[C@@H]([C@@H](C)O)C(=O)NCC(=O)N1)C(=O)O` [SP-304, Asn^1-Asp^2-Glu^3-Cys^4-Glu^5-Leu^6-Cys^7-Val^8-Asn^9-Val^10-Ala^11-Cys^12-Thr^13-Gly^14-Cys^15-Leu^16]: the “percent purity of SP-304 (HPLC), Closed 3 M” value is 84.1%.
